Values quoted from earlier work, collected in patent US9403784B1, “Fumarate compounds, pharmaceutical compositions thereof, and methods of use” (priority 2015, dated 2016).

Tested on: ALS

Nc1nc2ccc(OC(F)(F)F)cc2s1 [riluzole]
extension of survival: about three
